Legend:
Mus musculus [1] = test: Antinociceptive activity on mice by chemical irritation (HCl writhing) stimulus modalities after subcutaneous administration
Mus musculus [2] = test: Antinociceptive activity on mice by tail flick assay after subcutaneous administration
Mus musculus [3] = test: Antinociceptive activity on mice by tail pinch assay after subcutaneous administration

CN(C(=O)Cc1ccc(Cl)c(Cl)c1)[C@H]1C=CCC[C@@H]1N1CCCC1
ED50 (Mus musculus [1]): 0.7 mg/kg
ED50 (Mus musculus [2]): 1 mg/kg
ED50 (Mus musculus [3]): 1 mg/kg
